Literature values, collected in patent publication US7138151B2, “Calcium-fortified acidic beverages” (Unilab Pharmatech, Ltd., priority 2002, dated 2006).

Conditions: at 25° C.

In the case of calcium gluconate, the “solubility expressed as dissolved calcium” value is listed as 0.35 % w/v.
